The source of these data is patent US5731334A, “Method for treating cancer using taxoid onium salt prodrugs” (priority 1995, dated 1998).

The conditions of series [1]: 1-2 hour i.v. infusion every 2 or 3 weeks; cited from earlier work.
The nature of series [2]: Plasma stability and prodrug reversion (ethyl acetate extraction, HPLC). Conditions: human plasma, 37° C.; Table II.

Molecules are shown by their SMILES.

For `CC(=O)O[C@@]12CO[C@@H]1C[C@H](O)[C@@]1(C)C(=O)[C@H](O)C3=C(C)[C@@H](OC(=O)[C@H](O)[C@@H](NC(=O)OC(C)(C)C)c4ccccc4)C[C@@](O)([C@@H](OC(=O)c4ccccc4)[C@H]21)C3(C)C` [Compound 5, N-debenzoyl-N-tert-butoxycarbonyl-10-deacetyl Taxol, reference compound], the limiting toxicity entry in series [1] is “dose-dependent, reversible neutorpenia”. Besides, in series [2], the “Plasma Stability t1/2” value is recorded as “stable”.
